Patent publication US20180271945A1, “UROCORTIN 2 ANALOGS AND USES THEREOF” (Research Development Foundation, priority 2009, published 2018)

By UniProt entry, the sequences of proteins in these tests, tags left out. Residues count along the entry.
UniProt P47866, 1-431 isoform P47866-2: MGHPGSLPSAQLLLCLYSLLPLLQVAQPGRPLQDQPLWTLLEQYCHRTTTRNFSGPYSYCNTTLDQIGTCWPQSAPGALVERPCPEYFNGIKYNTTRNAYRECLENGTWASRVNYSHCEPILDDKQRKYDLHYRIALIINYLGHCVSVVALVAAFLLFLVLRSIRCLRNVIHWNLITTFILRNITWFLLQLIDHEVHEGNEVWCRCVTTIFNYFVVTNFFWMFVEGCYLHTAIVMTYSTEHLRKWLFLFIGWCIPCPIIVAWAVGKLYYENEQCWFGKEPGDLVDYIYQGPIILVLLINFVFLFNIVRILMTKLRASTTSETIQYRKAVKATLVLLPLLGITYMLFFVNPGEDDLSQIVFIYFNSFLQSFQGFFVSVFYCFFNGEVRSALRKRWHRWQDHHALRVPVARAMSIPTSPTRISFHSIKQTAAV

Molecular target: T1, CRFR2 (Rattus norvegicus, UniProt P47866)
T1 construct: A7r5 cells, which express CRFR2; endogenous in cells; host or cells: A7r5 cells
Assay: stimulation of cAMP accumulation in A7r5 cells
Type: cell-based
Details: which express CRFR2, range in brackets, number of assays as superscript
Method: Urocortin 2 precursors were overexpressed in various cell lines, and their function was evaluated. Pancreatic and skin cell lines were infected with mouse urocortin 2 (mUcn 2) lentivirus. The amino acid sequence of mouse urocortin 2 is provided as SEQ ID NO:10. […] The peptide was synthesized and bioactivity was determined by the stimulation of cAMP accumulation in A7r5 cells, which express CRFR2. […] It is possible that R^0mUcn 2 could be further processed by aminopeptidases to mUcn 2(1-38). Number of assays are depicted as a superscript.
The corresponding human analog, R^0hUcn 2, was synthesized.
The EC50S were calculated based on protein determination by immunoassay and chromatographic peak height.

| EC50 [nM] | SMILES |
| --- | --- |
| 0.07 | CC[C@H](C)[C@H](NC(=O)[C@H](CCC(N)=O)NC(=O)[C@H](C)NC(=O)[C@H](CC(N)=O)NC(=O)[C@@H](NC(=O)[C@H](C)NC(=O)[C@H](C)NC(=O)[C@H](CCC(N)=O)NC(=O)[C@H](CC(N)=O)NC(=O)[C@H](CCCNC(=N)N)NC(=O)[C@H](C)NC(=O)[C@H](C)NC(=O)[C@H](CCCCN)NC(=O)[C@H](Cc1ccc(O)cc1)NC(=O)[C@H](CCCNC(=N)N)NC(=O)[C@H](C)NC(=O)[C@H](CCC(N)=O)NC(=O)[C@H](CCC(=O)O)NC(=O)[C@H](CC(C)C)NC(=O)[C@H](CC(C)C)NC(=O)[C@@H](NC(=O)[C@H](CCCNC(=N)N)NC(=O)[C@H](CC(C)C)NC(=O)[C@H](CC(C)C)NC(=O)CNC(=O)[C@@H](NC(=O)[C@@H]1CCCN1C(=O)[C@@H](NC(=O)[C@H](CC(=O)O)NC(=O)[C@H](CC(C)C)NC(=O)[C@H](CO)NC(=O)[C@H](CC(C)C)NC(=O)[C@@H](NC(=O)[C@@H](N)C(C)C)[C@@H](C)CC)C(C)C)[C@@H](C)CC)[C@@H](C)CC)[C@@H](C)O)C(=O)N[C@@H](CC(C)C)C(=O)N[C@@H](C)C(=O)N[C@@H](Cc1c[nH]cn1)C(=O)N[C@H](C(N)=O)C(C)C [mUcn 2, reference compound] |
| 0.11 | CC[C@H](C)[C@H](N)C(=O)N[C@H](C(=O)N[C@@H](CC(C)C)C(=O)N[C@@H](CO)C(=O)N[C@@H](CC(C)C)C(=O)N[C@@H](CC(=O)O)C(=O)N[C@H](C(=O)N1CCC[C@H]1C(=O)N[C@H](C(=O)NCC(=O)N[C@@H](CC(C)C)C(=O)N[C@@H](CC(C)C)C(=O)N[C@@H](CCC(N)=O)C(=O)N[C@H](C(=O)N[C@@H](CC(C)C)C(=O)N[C@@H](CC(C)C)C(=O)N[C@@H](CCC(=O)O)C(=O)N[C@@H](CCC(N)=O)C(=O)N[C@@H](C)C(=O)N[C@@H](CCCNC(=N)N)C(=O)N[C@@H](C)C(=O)N[C@@H](CCCNC(=N)N)C(=O)N[C@@H](C)C(=O)N[C@@H](C)C(=O)N[C@@H](CCCNC(=N)N)C(=O)N[C@@H](CCC(=O)O)C(=O)N[C@@H](CCC(N)=O)C(=O)N[C@@H](C)C(=O)N[C@H](C(=O)N[C@H](C(=O)N[C@@H](CC(N)=O)C(=O)N[C@@H](C)C(=O)N[C@@H](CCCNC(=N)N)C(=O)N[C@H](C(=O)N[C@@H](CC(C)C)C(=O)N[C@@H](C)C(=O)N[C@@H](CCCNC(=N)N)C(=O)N[C@H](C(N)=O)C(C)C)[C@@H](C)CC)[C@@H](C)O)[C@@H](C)O)[C@@H](C)CC)[C@@H](C)CC)C(C)C)C(C)C [hUcn 2, reference compound] |
